Laboratory results as given in ChEMBL document CHEMBL1147504, “Synthesis of methylphenidate analogues and their binding affinities at dopamine and serotonin transport sites” (Bioorg Med Chem Lett, 2004).

Target: Dopamine receptor

**Q.** Which IC50 does the source give for COC(=O)[C@H](c1ccc2ccccc2c1)[C@H]1CCCCN1.Cl (racemic) here?
**A.** 33.9 nM
